# Values of other authors as cited in paper PMC4216217 (Journal of Medicinal Chemistry, 2014).
# Target: D3 receptor
# Conditions: read-out: Ki, D3 receptor; cited from earlier work
smiles,measurement,value
CCCN(CC[C@]1(O)C[C@@H](NC(=O)c2ccc3ccccc3c2)C1)[C@H]1CCc2nc(N)sc2C1 [compound 2],Ki,< 1 nM
